# Binding of CDR-mutated scFvs to a peptide of the spike HR2 region

Binding partner: SARS-CoV-2 spike HR2 peptide, sequence PDVDLGDISGINAS.

The variants keep the heavy chain, the linker and the frameworks of Ab-14 (scFv order VH, the linker GGGGSGGGGSGGGGS, VL).
VH: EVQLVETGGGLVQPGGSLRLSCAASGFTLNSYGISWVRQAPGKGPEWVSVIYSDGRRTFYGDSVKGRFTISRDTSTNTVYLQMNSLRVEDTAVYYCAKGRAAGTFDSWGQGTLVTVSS
VL: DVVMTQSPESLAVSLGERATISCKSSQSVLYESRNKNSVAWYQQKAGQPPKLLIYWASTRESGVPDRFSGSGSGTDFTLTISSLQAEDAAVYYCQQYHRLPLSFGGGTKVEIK

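Phage display of a naive human antibody library on the peptide gave the parent. The variants were designed computationally from a first round of random CDR variants and then made and measured. Their group label is 14L_GP_HC (GP: Gaussian process model; HC: hill climbing; a sequence that several methods proposed may carry one label only). The assay is AlphaSeq: two haploid yeast populations carry antibody and antigen on their surface. Binding brings cells together so that they mate, and sequencing counts the barcode pairs among the diploids. A regression on co-assayed BCL2-family reference pairs converts the normalised counts of each replicate to an apparent Kd. There are six technical replicates.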

Each variant is given by its three light chain CDRs, as the data file delimits them; those of the parent are KSSQSVLYESRNKNSVA, WASTRES, QQYHRLPLS. Affinities are written as log10 Kd with Kd in nM; a lower number is a better binder. The mean shown is taken over the replicates in which the pair was detected. An entry "ND" has no value in the source: the pair was not observed among the diploids in that replicate. This suggests poor binding but is not conclusive. In the paper, a design with two or fewer of six values counts as a poor binder. As a blank, each scFv also met three strains without target: over all light chain designs, 4% of these pairings were detected, typically at 2.64 and seldom below 1.59. Also given: how often the same scFv was detected with the empty control strains, with their mean in brackets. A sequence measured in both rounds can read differently, since the two assays cover different ranges. The parent sequence was in this pool as ten entries: three were never detected, three once, and four in most replicates, with averages from 0.34 to 2.37.

CDR-L1,CDR-L2,CDR-L3,"replicates, log10 nM","log10 Kd (nM), mean",empty controls
SSSQSWLYESRNKNSVA,GASTRES,QQYHRLPLS,1.32 / 2.01 / 0.98 / 1.48 / 0.96 / 1.60,1.39,1/18 (4.22)
KSSQGNLYESRNKNSVA,NASTRES,QQYHRLPLS,0.05 / -0.24 / -0.20 / -0.27 / -0.24 / -0.18,-0.18,0/18
KQSQQFLYESRNKNSVA,DANTRES,QQYHRLPLS,-0.17 / -0.48 / -0.41 / -0.43 / -0.62 / -0.24,-0.39,0/18
KLQQSQEYESRNKNSVA,HASTRES,QQYHRLPLS,0.82 / 1.26 / 1.12 / 1.53 / 1.46 / 1.30,1.25,0/18
KSSQSQLYESRNKNSVA,GASTRED,QQYHRLTLS,ND / -0.27 / ND / ND / -1.33 / ND,-0.80,0/18
KLRQSTLYETRNKNSVA,WASTREE,QQYHRLPLS,1.12 / 0.36 / 0.80 / 0.56 / 0.96 / 1.22,0.84,2/18 (2.20)
KSSPSVWYESENKNSVA,NASTRMS,QQYHRLPLS,0.47 / 1.02 / 0.24 / 0.75 / 0.14 / 0.38,0.50,0/18
KMEQGVLYESRNKNSVA,HASVRES,QQYHRLPLS,0.22 / 0.27 / 0.08 / 0.08 / 0.16 / 0.38,0.20,0/18
KLRGSTLYESRNKNSVA,WASTRES,QQYHRLPLS,0.24 / 0.34 / 0.26 / 0.15 / 0.19 / 0.06,0.21,0/18
KCSQSVLFQSRNKNSVA,DASTRES,QQYHRLPLS,0.10 / -0.02 / -0.23 / -0.29 / -0.19 / 0.10,-0.09,0/18
KSSISELYESRNKNSVA,EASTRES,QQYHRLPLS,0.21 / -0.13 / -0.14 / 0.10 / -0.11 / 0.22,0.03,3/18 (3.25)
KLSQSVLYESRMKNSVA,DASTRCS,QQYHRLPLS,-0.09 / -0.29 / -0.19 / -0.28 / -0.35 / 0.11,-0.18,0/18
KSSISYLYESLNKNSVA,EASQRES,QQYHRLPLS,0.40 / 0.43 / 0.15 / 0.26 / 0.48 / 0.49,0.37,1/18 (3.22)
KFSPSVLYESRDKNSVA,NASTRES,QQYHRLPLS,-0.20 / -0.29 / -0.47 / -0.62 / -0.44 / -0.05,-0.35,2/18 (3.28)
KLLQSVLYESRNKNSVA,NASTRED,QQYHQLPLS,0.50 / 0.23 / 0.17 / 0.42 / 0.17 / 0.59,0.35,0/18
HSSQSVKMESRNKNSVA,DASTRES,QQYHRLPLS,0.26 / -0.29 / -0.61 / -0.16 / -0.01 / 0.12,-0.11,0/18
KFSQSVLYESRMSNRVA,NASTRES,QQYHRLPLS,0.22 / 0.16 / 0.43 / 0.21 / 0.11 / 0.22,0.23,0/18
KSSISWLYESRNKNSVA,EASTRES,QQYHRLPLS,0.07 / -0.14 / -0.15 / -0.22 / 0.14 / 0.16,-0.02,0/18
KFLQSVLYESRNFNSVA,HASTRED,QQYHRLPLS,0.36 / 0.45 / 0.23 / 0.37 / 0.31 / 0.53,0.38,3/18 (3.77)
IAFQSWLYESRNKNSVA,GASTRES,QQYHRLPLI,1.31 / 1.72 / 1.77 / 1.53 / 1.96 / 2.08,1.73,1/18 (1.88)
KMEQGVLYESRNKGSVA,NASVRES,QQYHRLPLS,0.38 / 0.53 / 0.22 / 0.19 / 0.28 / 0.53,0.35,0/18
KVLQSVLYESRNKNSVA,HASTRED,QLYHRLPLS,ND / ND / ND / 2.73 / ND / ND,2.73,0/18
HSSPSYLYESRNGNSVA,NASTRES,QQYHRLPLS,0.50 / 0.40 / 0.21 / 0.16 / 0.32 / 0.43,0.34,1/18 (2.49)
KQSQSDLYESRNKNNVA,DASTRES,QQYHRLPLS,0.42 / 0.29 / 0.54 / 0.07 / 0.77 / -0.29,0.30,1/18 (1.16)
KSEQGVLYESRNKNSVA,GASQRES,QQYHRLPLS,0.16 / 0.01 / 0.13 / 0.14 / -0.15 / 0.15,0.07,2/18 (2.31)
KYYPSHLYESRNKNSVA,QASTRES,QQYHLLPLS,-0.07 / -0.06 / -0.19 / -0.37 / -0.13 / 0.10,-0.12,0/18
KVSQSVLYESRNKNAVA,DASTRES,QQYHWLPLS,0.97 / 0.37 / 0.77 / 0.32 / 0.34 / 0.57,0.56,1/18 (2.74)
KMSQSDLMEHRNKNSVA,DASLRES,QQYHRLPLS,-0.36 / -0.54 / -0.45 / -0.35 / -0.20 / -0.16,-0.34,0/18
KQSQSVKMESRNKNSVA,DASTRES,QQYHRLPLS,0.15 / 0.05 / 0.16 / -0.14 / 0.23 / -0.04,0.07,0/18
KLLQSVLYESRNKNSVA,HASTRES,QQYHQLPLS,0.25 / -0.01 / -0.09 / 0.06 / 0.10 / 0.38,0.12,1/18 (2.49)
KSSISYLYESENKRSVA,SASQRES,QQYHRLPLS,0.72 / 0.74 / 0.29 / 0.27 / 0.52 / 0.57,0.52,2/18 (2.48)
KLLWSVLYESNNKNSVA,HASTRED,QQYHRLPLS,1.53 / 1.12 / 1.02 / 0.91 / 0.95 / 0.97,1.08,1/18 (1.57)
HSSPSVLYESRNKNSVA,NASTRET,QQYHRLPLQ,0.37 / 0.20 / 0.50 / 0.03 / 0.36 / 0.38,0.31,1/18 (3.31)
KLMMSTLYESRNKNSVA,NASTRES,QQYHRLPLS,1.88 / 2.32 / 1.83 / 1.52 / 3.86 / 2.07,2.25,0/18
NLSQSWLYESRNKNSVA,SGNTRES,QQYHRLPLS,-0.16 / -0.30 / -0.44 / -0.51 / -0.31 / -0.08,-0.30,2/18 (2.89)
KLQQQELYESRNKNSVA,SASTREE,QQYHRLPLS,0.66 / 0.39 / 0.60 / -0.05 / 0.28 / 0.61,0.42,0/18
KSSQSVLTQSRNKNSVA,DASTRES,QQYHRLPLS,0.43 / 0.57 / -0.09 / 0.14 / 0.32 / 0.36,0.29,0/18
HLSQSVTYESRNKNSVA,NASTRES,QQYHRLPLN,-0.06 / 0.01 / -0.08 / -0.19 / -0.21 / 0.01,-0.09,0/18
KSSISYEYESRNENSVA,EASTREQ,QQYHRLPLS,-0.15 / 0.10 / 0.13 / 0.02 / 0.18 / 0.26,0.09,0/18
KQSQEKDYESRNKNSVA,DASTRES,QQYHRLPLS,-0.25 / -0.03 / -0.24 / -0.04 / 0.29 / -0.03,-0.05,0/18
KSSISYLYGSRNKNSVA,AASTRES,QQYHRLPLS,0.45 / 0.30 / 0.36 / 0.27 / 0.58 / 0.73,0.45,1/18 (2.50)
KQSQSVLMESRNKNSVA,DASTRES,QQYHRLPLD,ND / ND / 1.81 / 2.63 / 2.19 / ND,2.21,1/18 (2.37)
KLRQSQNYESRNKNSVA,NASTRES,QIYHRLPLS,0.47 / 0.60 / 0.27 / 0.01 / 0.32 / 0.28,0.32,1/18 (1.93)
KVRQSQLYESRNKNSVA,WASTRES,QQYHRLPLS,1.43 / 1.50 / 1.36 / 0.76 / 1.18 / 1.17,1.23,0/18
KISQSWLYESRNKNSVA,GASFRES,QQYHRLPLS,0.27 / 0.05 / -0.10 / -0.18 / 0.08 / 0.14,0.04,0/18
KLSLSVLLESRNKNSVA,NASTRES,QQYHRLPLS,0.08 / -0.13 / -0.18 / -0.36 / -0.25 / 0.04,-0.14,3/18 (2.91)
KVSQSWLKESRNKNSVA,EASTRES,QQYHRLPLS,-0.40 / -0.39 / -0.70 / -0.69 / -0.76 / -0.54,-0.58,1/18 (2.55)

Source: Li et al. 2023 (doi:10.1038/s41467-023-39022-2), MIT Lincoln Laboratory and A-Alpha Bio; data file from the FLAb repository.